One compound from patent publication US5196446A (priority 1991, dated 1993) can be followed below.

The chains behind the UniProt entries cited, without tags or fusion partners. Residues count along the entry.
UniProt P00533, 25-1210: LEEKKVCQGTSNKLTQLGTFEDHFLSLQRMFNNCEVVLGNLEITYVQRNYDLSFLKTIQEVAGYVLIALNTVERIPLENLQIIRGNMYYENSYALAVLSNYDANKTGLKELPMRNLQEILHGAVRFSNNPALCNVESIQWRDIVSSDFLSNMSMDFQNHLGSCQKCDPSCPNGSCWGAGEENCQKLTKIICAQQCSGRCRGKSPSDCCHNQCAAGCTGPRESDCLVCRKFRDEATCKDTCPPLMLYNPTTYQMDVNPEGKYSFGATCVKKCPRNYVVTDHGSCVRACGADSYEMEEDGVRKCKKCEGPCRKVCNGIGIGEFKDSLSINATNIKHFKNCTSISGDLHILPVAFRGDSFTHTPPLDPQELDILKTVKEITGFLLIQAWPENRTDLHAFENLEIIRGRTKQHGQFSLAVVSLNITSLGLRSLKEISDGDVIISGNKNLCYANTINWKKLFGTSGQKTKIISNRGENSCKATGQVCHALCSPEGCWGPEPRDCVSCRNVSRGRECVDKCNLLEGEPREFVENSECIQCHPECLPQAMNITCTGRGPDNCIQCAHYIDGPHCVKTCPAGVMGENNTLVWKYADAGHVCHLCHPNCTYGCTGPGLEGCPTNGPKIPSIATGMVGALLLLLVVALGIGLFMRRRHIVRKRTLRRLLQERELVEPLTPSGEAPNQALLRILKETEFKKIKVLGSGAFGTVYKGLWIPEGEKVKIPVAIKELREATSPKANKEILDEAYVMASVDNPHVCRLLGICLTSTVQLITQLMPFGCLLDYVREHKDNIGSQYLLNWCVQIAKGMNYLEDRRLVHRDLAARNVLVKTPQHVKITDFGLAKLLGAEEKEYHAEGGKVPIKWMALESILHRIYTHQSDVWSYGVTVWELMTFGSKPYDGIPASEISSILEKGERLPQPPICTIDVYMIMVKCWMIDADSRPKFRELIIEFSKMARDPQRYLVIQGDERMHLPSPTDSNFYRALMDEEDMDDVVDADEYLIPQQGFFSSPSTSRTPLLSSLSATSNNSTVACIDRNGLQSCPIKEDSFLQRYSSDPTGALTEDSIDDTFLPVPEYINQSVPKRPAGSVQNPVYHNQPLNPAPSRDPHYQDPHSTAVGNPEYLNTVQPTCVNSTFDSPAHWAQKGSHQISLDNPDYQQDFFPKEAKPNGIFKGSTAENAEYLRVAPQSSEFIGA

In the assay the target is T1, EGF receptor tyrosine kinase (Homo sapiens, UniProt P00533).
T1 construct: WGA-purified EGF receptor from A431 cells; endogenous in cells; host or cells: A431 cells (solubilized, receptor enriched on WGA-agarose)
In kind it is biochemical. Particulars: read-out: IC50 (concentration of inhibitor required to inhibit 50% of polyGAT phosphorylation).

Consider `N#CC(C#N)=Cc1ncc[nH]1` [Example 1, 2-Imidazolidene malononitrile], for which the IC50 was 532 µM.
